Like-named read-outs stand apart in the source and are kept apart here.
Key:
conscious humans = conditions: cited from earlier work
[1] = tested on: isoflurane-anesthetized rats under surgery; test: Renal response to drug given after start of surgery and isoflurane anesthesia; type: in vivo, Sprague-Dawley rat
[2] = tested on: rats during surgery under isoflurane anesthesia
[3] = tested on: dogs anesthetized with sodium pentobarbital; conditions: cited from earlier work
[4] = tested on: rats anesthetized with Inactin; conditions: 10 mg/kg subcutaneous, cited from earlier work
conscious rats [5] = conditions: intravenous infusion 20 μg/kg/min; cited from earlier work
[6] = in vivo; cited from earlier work
conscious rats [7] = test: Intravenous infusion of U-50,488H in conscious rats; conditions: intravenous infusion (55 μl/min) 25 μg/kg/min
[8] = tested on: dogs anesthetized with sodium pentobarbital; test: U-50,488-induced diuresis in pentobarbital-anesthetized dogs (Slizgi et al.)
[9] = continuous intravenous infusion after start of surgery and isoflurane
[10] = continuous infusion for 10 hours, single female rat
[11] = dissolved in 5% dextrose in water (D5W), infusion 6 hours, single rat
[12] = pretreatment in conscious state, continued infusion 60-120 minutes

For CN(C(=O)Cc1cccc2occc12)[C@H]1CC[C@@]2(CCCO2)C[C@@H]1N1CCCC1, the “persistence of adverse effects” value (conscious humans; after intramuscular injection) is given as “up to 4 hours”, the negative side effects (conscious humans; intramuscular, 5 to 25 μg) is given as “dizziness, fatigue, paresthesia, headache, vasodilation (facial flushing), emotional lability, feeling “high,” and abnormal thinking” and the urine flow (conscious humans; intramuscular, 5 to 25 μg) is given as “increased urine flow”. For the same molecule, the “time to onset of adverse effects” value (conscious humans; post-dose, intramuscular injection) was 15 to 30 min.
For CN(C(=O)Cc1ccc(Cl)c(Cl)c1)[C@@H]1CCCC[C@H]1N1CCCC1.CS(=O)(=O)O.O (racemic), the diuretic effect ([1]; 25 μg/kg/min, during surgery and isoflurane anesthesia) was “completely ineffective as a diuretic”, the urinary potassium excretion [1, 9] was “remained at low levels” and the urinary sodium excretion [1, 9] was “remained at low levels”. The “effect on urine flow rate” value ([1]; continuous intravenous infusion after start of surgery and isoflurane (U-50,488H 100 μg/kg/min)) was “completely reversed the surgery and isoflurane-impaired urine flow”, the “urine flow rate, peak” value ([1]; continuous intravenous infusion after start of surgery and isoflurane (U-50,488H 100 μg/kg/min), saline infusion 55 μl/min) was “about 120 μl/min” and the “urine flow rate during infusion” value ([2]; 100 μg/kg/min, pretreated 15 minutes conscious, infusion 60 minutes under isoflurane and surgery) was 50 to 70 µL/min. For the same molecule, the urinary sodium excretion [2, 10] was “remained low for several hours (time 0-5 hours), but increased substantially after urinary potassium excretion had reached its peak (time 6-10 hours)”, the urine flow rate [2, 10] was “remained elevated for the entire ten hour duration of U-50,488H infusion” and the urinary potassium excretion ([2]; continuous infusion for 10 hours, single female rat, after the first hour) was “rose slowly for a time (time 1-3 hours), and then more rapidly (time 4-10 hours)”. For the same molecule, the urinary potassium excretion [2, 11] was “initial decrease (time 1-2 hours), but returned to a steady level”, the urinary sodium excretion [2, 11] was “remained low at all times” and the urine output [2, 11] was “maintained urine output during surgery and anesthesia for the duration of the study”. The “time urine flow rate remained at similar level after stopping the infusion” value ([2]; infusion stopped at time 60, saline thereafter) was 100 to 120 min, the urinary calcium excretion ([2]; intravenous infusion 100 μg/kg/min (not illustrated)) was “reduced urinary calcium excretion” and the “effect on urine flow rate during surgery and isoflurane anesthesia” value [2, 12] was “completely prevented the reduction in urine flow rate”. The urinary potassium excretion [2, 12] was “remained low”, the urinary sodium excretion [2, 12] was “remained low” and the urine osmolality [2, 12] was “tended to increase toward the end of the study”. For the same molecule, the “increase in urine flow rate” value ([3]; single i.v. dose 0.2 mg/kg) was 2.5 fold, the “increase in urine flow rate” value ([3]; single i.v. dose 5 mg/kg) was 7 fold and the “urine flow rate response” value ([3]; single i.v. dose 0.2, 1 or 5 mg/kg) was “dose-dependent increase in urine flow rate, peaking within two hours”. The “urinary flow, peak” value ([4]; 60 minutes after injection, baseline about 150 μl/min) was “about 220 μl/min”, the urine flow ([4]; 200 minutes after injection) was “about 90 μl/min” and the “duration of diuretic response” value (conscious rats [5]) was 60 to 80 min. The “magnitude of diuretic response, increase over baseline” value (conscious rats [5]) was 150 to 200 µg/min, the “onset of diuretic response” value (conscious rats [5]) was 10 min and the “time of peak magnitude of diuretic response” value (conscious rats [5]) was 30 to 40 min. For the same molecule, the pharmacokinetic half-life [6] was 30 min, the diuresis (conscious rats [7]) was “marked diuresis” and the urine flow rate ([8]; single i.v. dose 0.2 mg/kg) was “approximately 0.078 ml/min/kg”. For the same molecule, the urine flow rate ([8]; single i.v. dose 5 mg/kg, from estimated basal level) was “approximately 0.329 ml/min/kg”.
For “(5-α,7-α,8-β)-(−)-N-methyl-N-[7-(1-pyrrolidinyl)-1-oxaspiro(4,5)-dec-8-yl]-benzeneacetamide”, the “effect on urine flow rate during surgery and isoflurane anesthesia” value [2, 12] was “did not completely prevent a decrease in urine output”, the urinary potassium excretion [2, 12] was “remained low” and the urinary sodium excretion [2, 12] was “remained low”. The urine osmolality [2, 12] was “remained low”, the urine flow rate ([2]; time 0, thiopental anesthesia and surgery, after pretreatment in the conscious state (100 μg/kg/min; tifluadom 50 μg/kg/min)) was 39 µL/min and the urine flow rate ([2]; time 10 after start of isoflurane, continued infusion) was 54 µL/min. For the same molecule, the urine flow rate ([2]; time 20 min after start of isoflurane, continued infusion) was 13 µL/min.

From patent US6468971B1, “Maintaining kidney function during surgery or trauma” (Board of Supervisors of Louisiana State University and …, priority 1998, dated 2002)
